{"source": "patent US11965886B2", "about": "“Method of immobilizing a cell on a support using compounds comprising a polyethylene glycol moiety” (Roche Diagnostics Operations, Inc., priority 2013, dated 2024)", "test_system": "WBCs", "experiment": "Immobilization of cells: recovery rate of cells on SA (streptavidin) plate or untreated plate (Example 3)", "assay_type": "cell-based", "settings": "10 nmol/10e6 cells", "protocol": "The following applies for modular description of the compounds below: X=hydrophobic moiety, […]=fluorescein In the following experiment, the recovery rate of cells was determined."}
{"substance": "5′-(Cholesterol-TEG)1-Doubler-dT-Biotin-3′ [29.891272]", "values": [{"measurement": "remark on cells", "value": "Vesicle formation"}]}
